{"source": "paper PMC10222378", "about": "(Pharmaceuticals, 2023)", "tested_on": "human lymphocytes", "test": "CFSE lymphocyte proliferation assay after PHA activation", "format": "cell-based", "experimental": "In this method, following the loading of cells with CFSE dye, each round of cell division is apparent by the reduced dye content and consequent lower fluorescence intensity of the daughter cells. […] Peripheral blood mononuclear cells (PBMCs) were isolated from the heparinized blood of healthy donors (n = 3) using the Ficoll–Hypaque separation method. […] The cells were grown in a humidified chamber at 37 °C and 5% CO2 for 6 days. As a negative control, unstimulated CFSE-labeled PBMCs were cultured in the same condition. […] After 6 days of proliferation, the CFSE-labeled cells were collected and analyzed by flow cytometry in an ACEA NovoCyte 2000R cytometer (Agilent, Santa Clara, CA, USA).", "note": "Entries after “also recorded” stand apart in the source; their conditions may differ.", "data": [{"smiles": "N=C(N)Nc1nc2ccc(Cl)cc2[nH]1", "note": "[ClGBI, 5-chloro-2-guanidinobenzimidazole]", "values": [{"measurement": "inhibitory effect on lymphocyte proliferation", "result": "much weaker; also recorded: completely absent"}]}]}
